Source: article PMC3860265 (Journal of molecular biology, 2013)

Chains of the proteins cited; added tags and fusions are not shown. Lines headed by an entry give the natural chain unless they say otherwise; changes in a name come on top.
UniProt P22518: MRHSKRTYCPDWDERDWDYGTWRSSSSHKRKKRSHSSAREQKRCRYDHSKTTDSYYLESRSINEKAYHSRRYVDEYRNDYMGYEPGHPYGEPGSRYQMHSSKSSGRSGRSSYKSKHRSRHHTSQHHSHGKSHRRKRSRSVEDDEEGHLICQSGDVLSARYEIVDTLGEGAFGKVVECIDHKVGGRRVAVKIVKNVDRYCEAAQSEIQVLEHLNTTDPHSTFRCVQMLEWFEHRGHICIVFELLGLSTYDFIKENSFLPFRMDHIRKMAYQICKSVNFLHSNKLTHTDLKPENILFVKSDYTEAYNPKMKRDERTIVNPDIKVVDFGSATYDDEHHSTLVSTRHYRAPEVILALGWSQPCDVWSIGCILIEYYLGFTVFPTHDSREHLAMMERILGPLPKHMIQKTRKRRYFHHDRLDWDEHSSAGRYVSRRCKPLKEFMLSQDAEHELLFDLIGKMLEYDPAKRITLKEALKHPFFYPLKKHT

Target: CLK1 (mouse, UniProt P22518 1-483)
Assay: kinase competition assay

- Ki: 120 ± 20 nM
B1: SR(RRM2) (domain or fragment)
chain: NRVVVSGLPPSGSWQDLKDHMREAGDVCYADVYRDGTGVVEFVRKEDMTYAVRKLDNTKFRSHEGETAYIRVKVD
